The values that follow come from ChEMBL document CHEMBL1143970, “Structure-activity relationships and CoMFA of N-3 substituted phenoxypropyl piperidine benzimidazol-2-one analogues as NOP receptor agonists with analgesic properties” (Bioorg Med Chem, 2008).

Chains of the proteins cited; added tags and fusions are not shown.
UniProt P35372, whole entry: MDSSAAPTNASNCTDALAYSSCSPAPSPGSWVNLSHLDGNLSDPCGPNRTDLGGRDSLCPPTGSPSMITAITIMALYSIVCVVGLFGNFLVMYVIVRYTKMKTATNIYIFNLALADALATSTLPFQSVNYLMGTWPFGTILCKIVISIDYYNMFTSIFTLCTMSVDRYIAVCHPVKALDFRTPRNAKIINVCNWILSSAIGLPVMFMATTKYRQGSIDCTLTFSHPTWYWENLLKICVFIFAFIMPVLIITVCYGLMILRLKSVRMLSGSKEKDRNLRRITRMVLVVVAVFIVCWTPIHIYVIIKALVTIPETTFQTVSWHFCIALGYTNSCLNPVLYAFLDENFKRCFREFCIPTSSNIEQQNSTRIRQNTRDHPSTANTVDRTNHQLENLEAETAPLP
UniProt P41146, whole entry: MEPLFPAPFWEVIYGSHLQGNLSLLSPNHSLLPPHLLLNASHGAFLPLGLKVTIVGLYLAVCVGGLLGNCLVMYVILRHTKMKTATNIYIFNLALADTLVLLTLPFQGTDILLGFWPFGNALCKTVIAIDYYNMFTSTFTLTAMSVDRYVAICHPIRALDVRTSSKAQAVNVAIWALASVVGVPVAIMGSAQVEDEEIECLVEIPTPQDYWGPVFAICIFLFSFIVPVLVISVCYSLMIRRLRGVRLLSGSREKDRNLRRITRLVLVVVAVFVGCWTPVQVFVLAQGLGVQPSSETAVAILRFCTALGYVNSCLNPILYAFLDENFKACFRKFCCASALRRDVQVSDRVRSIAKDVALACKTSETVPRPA
UniProt P41143, whole entry: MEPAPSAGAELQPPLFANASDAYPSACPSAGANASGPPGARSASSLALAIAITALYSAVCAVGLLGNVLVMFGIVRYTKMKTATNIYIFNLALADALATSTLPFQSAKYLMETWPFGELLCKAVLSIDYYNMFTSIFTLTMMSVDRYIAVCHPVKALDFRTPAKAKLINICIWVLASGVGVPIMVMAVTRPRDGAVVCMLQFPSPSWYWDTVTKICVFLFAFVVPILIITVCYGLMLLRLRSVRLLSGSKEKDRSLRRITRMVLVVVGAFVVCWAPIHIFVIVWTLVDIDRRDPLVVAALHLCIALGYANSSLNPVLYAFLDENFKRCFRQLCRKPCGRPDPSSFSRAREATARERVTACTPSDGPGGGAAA
UniProt P41144, whole entry: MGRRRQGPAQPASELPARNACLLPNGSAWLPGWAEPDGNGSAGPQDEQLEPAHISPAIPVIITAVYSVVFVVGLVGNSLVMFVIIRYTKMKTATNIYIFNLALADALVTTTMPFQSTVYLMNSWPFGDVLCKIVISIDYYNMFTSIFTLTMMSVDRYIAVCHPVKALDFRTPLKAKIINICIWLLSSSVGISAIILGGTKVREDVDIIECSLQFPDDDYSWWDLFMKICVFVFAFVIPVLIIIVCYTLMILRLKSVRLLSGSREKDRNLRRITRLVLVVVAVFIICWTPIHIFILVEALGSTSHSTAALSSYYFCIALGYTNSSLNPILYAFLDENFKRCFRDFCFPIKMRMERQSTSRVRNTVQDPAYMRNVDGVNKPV

The structures appear in SMILES notation.

One experiment concerns the target Mu-type opioid receptor (Homo sapiens, UniProt P35372). Nature of the experiment: Displacement of [3H]Diprenorphine from human mu opioid receptor expressed in CHO cells.
The target of the next experiment is Nociceptin receptor (Homo sapiens, UniProt P41146). Description: Displacement of [3H]nociceptin from human NOP receptor expressed in CHO cells. For orientation: In a radioligand displacement assay an active substance lowers the binding of a labelled ligand.
In experiment [1] the target is Delta-type opioid receptor (Homo sapiens, UniProt P41143). Nature of the experiment: Displacement of [3H]naltrindole from human delta opioid receptor expressed in deltaC6 cells. Conditions: c6.
Experiment [2] relates to Mus musculus. Description: Antinociceptive activity against formalin-induced paw in iv dosed ICR mouse assessed as reduction of licking time during 0 to 5 mins.
Experiment [3] deals with Mus musculus. Description: Antinociceptive activity against formalin-induced paw in iv dosed ICR mouse assessed as reduction of licking time in during 0 to 30 mins.
Experiment [4] concerns the target Kappa-type opioid receptor (Cavia porcellus, UniProt P41144). Nature of the experiment: Displacement of [3H]U-69593 from kappa opioid receptor in guinea pig brain cortical tissue.

As for `COc1ccc(C)c(OC(CCN2CCC(n3c(=O)n(Cn4ccnc4C)c4ccccc43)CC2)C(C)C)c1` (stereo not given), the Log Ki at Mu-type opioid receptor is -6.91; on Nociceptin receptor, -8.31.
On to `COc1ccc(C)c(OC(CCN2CCC(n3c(=O)n(Cn4cccn4)c4ccccc43)CC2)C(C)C)c1` (stereo not given), for which the Log Ki at Mu-type opioid receptor was -6.65; at Nociceptin receptor it was -8.48.
In the same order, the values of `COc1ccc(C)c(OC(CCN2CCC(n3c(=O)n(Cc4noc(C)n4)c4ccccc43)CC2)C(C)C)c1` (stereo not given) are -6.69 and -7.43.
Taken in the same sequence, the figures for `COc1ccc(C)c(OC(CCN2CCC(n3c(=O)n(Cc4c[nH]cn4)c4ccccc43)CC2)C(C)C)c1` (stereo not given) were -6.67 and -8.43.
In the same order, the values of `COc1ccc(C)c(OC(CCN2CCC(n3c(=O)n(Cc4csc(C)n4)c4ccccc43)CC2)C(C)C)c1` (stereo not given) are -7.41 and -7.76.
In the case of `COc1ccc(C)c(OC(CCN2CCC(n3c(=O)n(Cn4cncn4)c4ccccc43)CC2)C(C)C)c1` (stereo not given), the Log Ki at Mu-type opioid receptor was -7.41; on Nociceptin receptor it was -8.73.
In the same order, the values of `COc1ccc(C)c(OC(CCN2CCC(n3c(=O)n(Cc4ncco4)c4ccccc43)CC2)C(C)C)c1` (stereo not given) are -7.08 and -8.41.
Taken in the same sequence, the figures for `COc1ccc(C)c(OC(CCN2CCC(n3c(=O)n(Cc4ccncc4)c4ccccc43)CC2)C(C)C)c1` (stereo not given) were -7.37 and -7.54.
By ED50 is commonly meant the midpoint of the dose-response relation. As to `COc1ccc(C)c(OC(CCN2CCC(n3c(=O)n(Cc4ncn[nH]4)c4ccccc43)CC2)C(C)C)c1` (stereo not given), the figures for the Log Ki in experiment [1] and in experiment [4] were -5.89 and -6.06, respectively. The ED50 in the experiment on Mus musculus [2] was determined as 2.62 µmol/kg; with Mus musculus [3], 0.65 µmol/kg.
On to `COc1ccc(C)c(OC(CCN2CCC(n3c(=O)n(Cc4ccsc4)c4ccccc43)CC2)C(C)C)c1` (stereo not given), for which the values for the Log Ki at Mu-type opioid receptor and on Nociceptin receptor were -7.41 and -8.82, respectively.
In the same order, the values of `COc1ccc(C)c(OC(CCN2CCC(n3c(=O)n(Cc4cnccn4)c4ccccc43)CC2)C(C)C)c1` (stereo not given) are -7.12 and -8.23.
Taken in the same sequence, the figures for `COc1ccc(C)c(OC(CCN2CCC(n3c(=O)n(Cc4nnc(C)[nH]4)c4ccccc43)CC2)C(C)C)c1` (stereo not given) were -6.92 and -7.38.
As to `COc1ccc(C)c(OC(CCN2CCC(n3c(=O)n(Cc4cocn4)c4ccccc43)CC2)C(C)C)c1` (stereo not given), the Log Ki at Mu-type opioid receptor was -6.98; at Nociceptin receptor, -8.6.
As for `COc1ccc(C)c(OC(CCN2CCC(n3c(=O)n(Cc4ncsn4)c4ccccc43)CC2)C(C)C)c1` (stereo not given), the Log Ki on Mu-type opioid receptor is -7; on Nociceptin receptor it was -8.77.
Taken in the same sequence, the figures for `COc1ccc(C)c(OC(CCN2CCC(n3c(=O)n(Cc4cc(C)on4)c4ccccc43)CC2)C(C)C)c1` (stereo not given) were -6.84 and -7.66.
Taken in the same sequence, the figures for `COc1ccc(C)c(OC(CCN2CCC(n3c(=O)n(Cc4cscn4)c4ccccc43)CC2)C(C)C)c1` (stereo not given) were -7.37 and -8.92.
For the compound `COc1ccc(C)c(OC(CCN2CCC(n3c(=O)n(Cc4cccnc4)c4ccccc43)CC2)C(C)C)c1` (stereo not given), the figures for the Log Ki on Mu-type opioid receptor and at Nociceptin receptor were -7.32 and -8.02, respectively.
Taken in the same sequence, the figures for `COc1ccc(C)c(OC(CCN2CCC(n3c(=O)n(Cc4ncon4)c4ccccc43)CC2)C(C)C)c1` (stereo not given) were -7.11 and -8.62.
`COc1ccc(C)c(OC(CCN2CCC(n3c(=O)n(Cc4cnn[nH]4)c4ccccc43)CC2)C(C)C)c1` (stereo not given): the Log Ki is -6.74 on Mu-type opioid receptor and -8.1 at Nociceptin receptor.
`COc1ccc(C)c(OC(CCN2CCC(n3c(=O)n(Cc4ncn(C)n4)c4ccccc43)CC2)C(C)C)c1` (stereo not given): the Log Ki on Mu-type opioid receptor was -7; at Nociceptin receptor, -7.02.
Consider `COc1ccc(C)c(OC(CCN2CCC(n3c(=O)n(Cc4ccccn4)c4ccccc43)CC2)C(C)C)c1` (stereo not given), for which the Log Ki on Mu-type opioid receptor is -7.28; at Nociceptin receptor it was -8.31.
For the compound `COc1ccc(C)c(OC(CCN2CCC(n3c(=O)n(Cc4nc(C)no4)c4ccccc43)CC2)C(C)C)c1` (stereo not given), the Log Ki is -7.02 at Mu-type opioid receptor and -7.53 at Nociceptin receptor.
Consider `COc1ccc(C)c(OC(CCN2CCC(n3c(=O)n(Cc4cccs4)c4ccccc43)CC2)C(C)C)c1` (stereo not given), for which the Log Ki on Mu-type opioid receptor is -7.35; on Nociceptin receptor it was -8.85.
In the same order, the values of `COc1ccc(C)c(OC(CCN2CCC(n3c(=O)n(Cc4nnn[nH]4)c4ccccc43)CC2)C(C)C)c1` (stereo not given) are -5.99 and -6.04.
Taken in the same sequence, the figures for `COc1ccc(C)c(OC(CCN2CCC(n3c(=O)n(Cc4n[nH]c(=O)[nH]4)c4ccccc43)CC2)C(C)C)c1` (stereo not given) were -7.6 and -8.23.
Taken in the same sequence, the figures for `COc1ccc(C)c(OC(CCN2CCC(n3c(=O)n(Cc4ncnn4C)c4ccccc43)CC2)C(C)C)c1` (stereo not given) were -7.32 and -7.93.
In the case of `COc1ccc(C)c(OC(CCN2CCC(n3c(=O)n(Cc4c(C)noc4C)c4ccccc43)CC2)C(C)C)c1` (stereo not given), the Log Ki on Mu-type opioid receptor is -7.25; on Nociceptin receptor it was -8.45.
In the same order, the values of `COc1ccc(C)c(OC(CCN2CCC(n3c(=O)n(Cc4noc(C(C)(C)C)n4)c4ccccc43)CC2)C(C)C)c1` (stereo not given) are -6.28 and -5.93.
Taken in the same sequence, the figures for `COc1ccc(C)c(OC(CCN2CCC(n3c(=O)n(Cn4ccnc4)c4ccccc43)CC2)C(C)C)c1` (stereo not given) were -6.92 and -8.38.
